Drawing on publication PMC2757638, this text covers percent of the total input protein forming a Cse4-H4 tetramer for 1 substance.

In the assay the target is recombinant Cse4 (S. cerevisiae) (UniProt P36012). Nature of the assay: in vitro reconstitution of Cse4-H4 tetramers.

As to “recombinant yeast histone H4 (from UniProt P02309 1-103) (natural protein; other documents disagree on this pair)”, the percent of the total input protein forming a Cse4-H4 tetramer stood at 0.05%.
